The list shows a part of the results, in another mix than the full data. Results filed as inconclusive are left out. Some structures show a salt or complex split into parts, the way the source records it. Calls of active or inactive are those of the source. Calls follow the shape of the dose curve; as a rule, active = well fitted inhibition curve with a large enough effect; inconclusive = small, poorly fitted or top-dose-only effect, or effect the other way; inactive = flat fitted curve, though single readings scatter.
% is scaled to controls: 0 for no effect and ±100 for the full control effect.

A short description of the assay: Nrf2 qHTS screen for inhibitors. Also: nearly all actives have a fitted effect of over 60% in size. The settings on record: A549 ARE-Fluc reporter, luciferase luminescence, 18-24 h; at 46 µM (top of the series). (In qHTS, concentration-response curves come from the screen itself.)
For `CCC(CO)(C(=O)OC1CN2CCC1CC2)c1ccccc1` (stereo not drawn), the activity change, negative = inhibition is inactive: 1.56%. Consider `COc1cc(OC)cc(C(=O)NCC2(N3CCOCC3)CCCCC2)c1`, for which the activity change, negative = inhibition is inactive: -3.64%. `COc1cc(C(=O)NCC2(N3CCOCC3)CCCCC2)cc(OC)c1OC`: the activity change, negative = inhibition was inactive: 10.6%. With `CN1CCC(Nc2ccc(Cl)cc2)CC1` the figure was inactive: -11.7%.

On to `CCOc1ncccc1C(=O)NCC1(N2CCOCC2)CCCCC1`, for which the activity change, negative = inhibition is inactive: -9.7%.

Consider `CN1CCC(Nc2ccc(F)c(Cl)c2)CC1`, for which the activity change, negative = inhibition is inactive: 7.87%. Regarding `CCCOc1ccc(C(=O)NCC2(N(C)C)CCCCC2)cc1`, the activity change, negative = inhibition is inactive: 14.2%. Then `CC(C)(C)OC(=O)N1CCC(Nc2ccccc2)CC1`, with inactive: -32%; and `O=C(O)C1(Nc2ccccc2)CCN(Cc2ccccc2)CC1`, with inactive: 9.32%.

`Cc1ccccc1NC1(C#N)CCN(Cc2ccccc2)CC1`: the activity change, negative = inhibition is inactive: 9.51%. For the molecule `CCN1CCC(Nc2cccc(F)c2)CC1`, the activity change, negative = inhibition was inactive: 0.473%. Then `O=C(NCC1(N2CCCCC2)CCCCC1)c1ccco1`, with inactive: 14.4%; and `CC(C)(C)c1ccc(C(=O)NCC2(N3CCOCC3)CCCCC2)cc1`, with inactive: 10.9%; and `CN(C)c1ccc(C(=O)NCC2(N3CCCCC3)CCCCC2)cc1`, with inactive: 1.36%.

`Cn1c(=O)[nH]cc(N(CCCl)CCCl)c1=O`: the activity change, negative = inhibition is inactive: -25.6%. With `Cc1ccccc1C(=O)NCC1(N(C)C)CCCCC1` the figure was inactive: 0.14%; with `COc1cc(OC)cc(C(=O)NCC2(N3CCCCC3)CCCCC2)c1`, inactive: 3.18%. Then `CN(C)C1(CNC(=O)c2ccc(C(C)(C)C)cc2)CCCCC1`, with inactive: 7.76%. Then `CC(=O)N(c1ccccc1)C1CCNCC1`, with inactive: -0.745%. Take `Cc1ccc(NC2(C#N)CCN(Cc3ccccc3)CC2)cc1`: the activity change, negative = inhibition is inactive: 3.53%. As for `Cc1ccc(C(=O)NCC2(N3CCCCC3)CCCCC2)o1`, the activity change, negative = inhibition was inactive: 2.08%.

With `c1ccc(CN2CCC(Nc3ccccc3)CC2)cc1`, the activity change, negative = inhibition was inactive: -6.24%. Take `O=C(NCC1(N2CCOCC2)CCCCC1)c1ccccc1`: the activity change, negative = inhibition was inactive: -1.58%. Then `CCCN1CCC(Nc2cc(OC)cc(OC)c2)CC1`, with inactive: 12.3%. Then `CN(C)C1(CNC(=O)c2cccc(C#N)c2)CCCCC1`, with inactive: 9.38%; and `CC(C)(C)OC(=O)N1CCC(N(C(=O)c2ccccc2)c2ccc(Cl)cc2)CC1`, with inactive: -16.9%. With `O=C(NCC1(N2CCOCC2)CCCCC1)c1ccccc1[N+](=O)[O-]`, the activity change, negative = inhibition is inactive: 1.24%. With `N#Cc1ccc(C(=O)NCC2(N3CCCCC3)CCCCC2)cc1` the figure was inactive: 1.96%; with `CCOC(=O)C(CC)C1=NC(C)(C)Cc2ccccc21.O=[N+]([O-])c1cc([N+](=O)[O-])c(O)c([N+](=O)[O-])c1` (stereo not drawn), inactive: -17.9%; with `N/C(=N\O)c1c(N)no[n+]1[O-]`, inactive: 16.5%.

Consider `CCOC(=O)N1CCC(Nc2ccc(C)cc2)CC1`, for which the activity change, negative = inhibition is inactive: -18.9%. With `CCc1cc(C(=O)NCC2(N3CCCCC3)CCCCC2)sc1C` the figure was inactive: 18.4%.

With `O=C(OC1CN2CCC1CC2)C1c2ccccc2C=Cc2ccccc21` (stereo not drawn), the activity change, negative = inhibition is inactive: 5.57%. With `O=C(O)c1cccc(Nc2c([N+](=O)[O-])cc([N+](=O)[O-])cc2[N+](=O)[O-])c1` the figure was inactive: 6.03%; with `O=C(NCC1(N2CCOCC2)CCCCC1)c1cc(Br)ccc1Cl`, inactive: -0.544%. Regarding `COc1cc(C(=O)NCC2(N3CCOCC3)CCCCC2)cc(OC)c1C`, the activity change, negative = inhibition was inactive: -9.52%.

On to `COc1ccc(C(=O)NCC2(N3CCOCC3)CCCCC2)cc1OC`, for which the activity change, negative = inhibition was inactive: -0.785%. Then `COc1ccc2c(c1O)-c1c(O)c(OC)cc3c1[C@H](C2)[N+](C)(C)CC3.O=[N+]([O-])c1cc([N+](=O)[O-])c([O-])c([N+](=O)[O-])c1[O-]`, with inactive: 0.169%.

Regarding `O=C(NCC1(N2CCCCC2)CCCCC1)c1cncc(Br)c1`, the activity change, negative = inhibition is inactive: 7.29%. For the molecule `O=C(OC1CN2CCC1CC2)c1ccc([N+](=O)[O-])cc1` (stereo not drawn), the activity change, negative = inhibition was inactive: -5.51%. With `CCCCOc1ccccc1C(=O)NCC1(N2CCOCC2)CCCCC1` the figure was inactive: -1.51%; with `O=C(NCC1(N2CCOCC2)CCCCC1)c1ccccc1Br`, inactive: 0.0137%. In the case of `CCCOc1ccc(C(=O)NCC2(N(C)C)CCCCC2)cc1OC`, the activity change, negative = inhibition was inactive: -13.6%. With `CN(C)c1cccc(C(=O)NCC2(N3CCCCC3)CCCCC2)c1`, the activity change, negative = inhibition was inactive: 1.28%. Consider `O=[N+]([O-])c1cc([N+](=O)[O-])c(OC2CCCCC2O)c([N+](=O)[O-])c1` (stereo not drawn), for which the activity change, negative = inhibition was inactive: -27%.

Take `COc1cc(OC)c(C(=O)NCC2(N(C)C)CCCCC2)cc1OC`: the activity change, negative = inhibition is inactive: 14%. Then `O=C(NCC1(N2CCOCC2)CCCCC1)c1cc(F)c(F)cc1Cl`, with inactive: 6.14%; and `O=C(NCC1(N2CCCCC2)CCCCC1)c1cccc(C(F)(F)F)c1`, with inactive: 8.18%; and `CCCOc1cccc(C(=O)NCC2(N3CCOCC3)CCCCC2)c1`, with inactive: 1.71%. Regarding `O=[N+]([O-])c1cc([N+](=O)[O-])c(NCC2CCS(=O)(=O)C2)c([N+](=O)[O-])c1` (stereo not drawn), the activity change, negative = inhibition is inactive: -2.25%.

With `CC(C)c1ccc(C(=O)NCC2(N3CCOCC3)CCCCC2)cc1`, the activity change, negative = inhibition is inactive: 20%. Then `CN1CCN(CCOC(=O)C(O)(c2ccccc2)c2ccccc2)CC1`, with inactive: 4.59%; and `O=C(NCC1(N2CCOCC2)CCCCC1)c1cc(=O)[nH]c2ccccc12`, with inactive: 16.5%; and `COc1cc(C(=O)NCC2(N3CCCCC3)CCCCC2)ccc1OC(F)F`, with inactive: 11.7%. On to `O=C(NCC1(N2CCCCC2)CCCCC1)c1ccc(OC(F)F)cc1`, for which the activity change, negative = inhibition is inactive: -10.5%. With `CCOc1ccc(C(=O)NCC2(N3CCOCC3)CCCCC2)cc1` the figure was inactive: 16.7%; with `O=C(NCC1(N2CCCCC2)CCCCC1)c1cccc([N+](=O)[O-])c1`, inactive: -1.8%. Then `CSc1ccc(C(=O)NCC2(N3CCOCC3)CCCCC2)cc1`, with inactive: 10.1%.

As to `CCN1CCC(Nc2ccc(Cl)cc2)CC1`, the activity change, negative = inhibition was inactive: -1.61%. `N#CC1(Nc2ccccc2)CCN(CCc2ccccc2)CC1`: the activity change, negative = inhibition is inactive: 11.4%. With `CCOC(=O)N1CCC(Nc2cccc(C)c2)CC1`, the activity change, negative = inhibition was inactive: -8.58%. For `CCOc1ccc(C)cc1CN(CCCl)CCCl`, the activity change, negative = inhibition was inactive: -14%. As to `O=C(NCC1(N2CCOCC2)CCCCC1)c1ccc(Cl)cc1`, the activity change, negative = inhibition is inactive: 0.736%. For `O=C1CCN(Cc2ccccc2)CC1`, the activity change, negative = inhibition was inactive: -3.24%.

`O=P1(N(CCCl)CCCl)SCCCS1`: the activity change, negative = inhibition was inactive: -12.9%. Then `O=C(NCC1(N2CCCCC2)CCCCC1)c1ccc(F)cc1`, with inactive: -1.99%. In the case of `CCOC(=O)N1CCC(Nc2ccc(F)cc2)CC1`, the activity change, negative = inhibition is inactive: -29.1%. Then `COc1ccc(NC2CCN(CCc3ccccc3)CC2)c(OC)c1`, with inactive: 10.7%; and `COc1ccccc1C(=O)NCC1(N2CCOCC2)CCCCC1`, with inactive: -5.89%; and `O=C(NCC1(N2CCOCC2)CCCCC1)c1cc2ccccc2o1`, with inactive: 26%. Regarding `O=C(NCC1(N2CCCCC2)CCCCC1)c1ccc(Cl)nc1`, the activity change, negative = inhibition was inactive: 5.7%.

As to `CCOC(=O)N1CCC(Nc2ccc(OC)cc2)CC1`, the activity change, negative = inhibition is inactive: -0.285%. Then `O=C(NCC1(N2CCCCC2)CCCCC1)c1ccc(Cl)s1`, with inactive: 17.9%; and `N#CC1(Nc2ccccc2)CCN(Cc2ccccc2)CC1`, with inactive: -1.31%; and `O=C(OC1CN2CCC1CC2)C1c2ccccc2Oc2ccccc21` (stereo not drawn), with inactive: 7.67%. For the molecule `COc1ccc(Cl)cc1C(=O)NCC1(N2CCOCC2)CCCCC1`, the activity change, negative = inhibition is inactive: 9.04%.

As for `O=C1C(O)=C([N+](=O)[O-])C(=O)C(O)=C1[N+](=O)[O-]`, the activity change, negative = inhibition was inactive: -3.31%. Regarding `O=C(NCC1(N2CCCCC2)CCCCC1)c1ccc(=O)[nH]c1`, the activity change, negative = inhibition was inactive: 16%. In the case of `O=C(NCC1(N2CCCCC2)CCCCC1)c1cccs1`, the activity change, negative = inhibition is inactive: -4.36%. Take `COc1ccc(C(=O)NCC2(N3CCCCC3)CCCCC2)cc1`: the activity change, negative = inhibition is inactive: -5.16%. With `CC(C)(C)OC(=O)N1CCC(N(C(=O)c2ccccc2)c2ccc(F)cc2)CC1` the figure was inactive: -11.3%; with `CSc1ccccc1C(=O)NCC1(N2CCCCC2)CCCCC1`, inactive: 3.32%.

On to `Cc1cccc(NC2(C#N)CCN(Cc3ccccc3)CC2)c1`, for which the activity change, negative = inhibition is inactive: -0.897%.
